Our source for the IC50 values is ChEMBL document CHEMBL1156598, “Synthesis, biological evaluation, and molecular modeling of abiraterone analogues: novel CYP17 inhibitors for the treatment of prostate cancer” (J Med Chem, 2008).

By UniProt entry, the sequences of proteins in these tests, tags left out.
UniProt P08684, whole entry: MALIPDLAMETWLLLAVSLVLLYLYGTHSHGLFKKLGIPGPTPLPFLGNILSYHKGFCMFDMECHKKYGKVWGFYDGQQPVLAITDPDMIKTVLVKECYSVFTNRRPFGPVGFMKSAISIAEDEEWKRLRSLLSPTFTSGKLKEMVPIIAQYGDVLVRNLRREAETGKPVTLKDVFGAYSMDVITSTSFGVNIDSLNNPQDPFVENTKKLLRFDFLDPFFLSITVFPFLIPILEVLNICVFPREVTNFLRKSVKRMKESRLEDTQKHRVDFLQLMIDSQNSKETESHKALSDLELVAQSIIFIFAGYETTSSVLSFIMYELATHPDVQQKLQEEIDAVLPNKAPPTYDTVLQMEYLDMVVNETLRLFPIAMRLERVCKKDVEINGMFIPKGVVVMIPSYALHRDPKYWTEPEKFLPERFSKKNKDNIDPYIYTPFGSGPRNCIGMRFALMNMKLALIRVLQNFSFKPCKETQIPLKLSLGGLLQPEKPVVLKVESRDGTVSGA

The target of the test is Cytochrome P450 3A4 (Homo sapiens, UniProt P08684). In words: Inhibition of recombinant CYP3A4 expressed in baculovirus-infected insect microsomes. Format: ADME, Microsome.

Consider `C[C@]12CC[C@H](O)CC1=CC[C@@H]1[C@@H]2CC[C@]2(C)C(c3cccnc3)=CC[C@@H]12` [ABIRATERONE], for which the IC50 (commonly the concentration at which inhibition is half-maximal) turned out to be 2700 nM.
